Measured values reported in US11241436B2, “Autophagy inducers for treatment of CNS conditions” (Northwestern University, priority 2017, dated 2022).

Test system: LC3
Assay: Promega Autophagy Assay System (HiBiT-tagged LC3 reporter, autophagy flux)
Type: cell-based
Details: LC3 reporter signal; decrease = increased autophagy
Text: The Promega Augophagy Assay System uses LC3 to monitor the autophagy process. […] LgBiT is a […] recombinant protein derived from NanoLuc. When HiBiT associates with LgBiT, a strong luciferase activity is reconstituted. An increase in autophagy will accelerate the degradation of LC3 reporter which decreases the assay signal. In contrast, inhibition of autophagy causes the accumulation of LC3 which will increase the reporter levels and assay signal.

Work on `N=c1c2c(-c3ccccc3)c(-c3ccccc3)n(Cc3ccccc3)c2ncn1CCCO` yielded an AC50 of 3.66 µM.
